Patent US20100158863A1, “TRIAZOLOANILINOPYRIMIDINE DERIVATIVES FOR USE AS ANTIVIRAL AGENTS” (ARROW THERAPEUTICS LIMITED, priority 2006, published 2010)

System: HCV replicon 1b
Test: ELISA, combined effect of HCV replication inhibitor with interferon αA
Format: cell-based
Description: ELISA Protocol as in Example 38
The fractional inhibitory concentratin (FIC) can be used to identify a synergistic interaction.

In the case of “interferon αA: interferon αA (Sigma Hu-INF-α A order number 14276)”, the “IC50 of interferon αA in combination” value (at concentrations of [6-(3,4-Dimethoxy-phenyl)-quinazolin-4-yl]-(4-[1,2,4]triazol-1-yl-phenyl)-amine below its IC50) is reported as no more than 0.008 u/ml and the “ELISA IC50 against HCV replicon 1b” value (interferon αA alone) is reported as 6 u/ml.
